Tests used:
E. coli TP = E. coli TP (Escherichia coli, UniProt P07650); assay: Phosphorolysis by E. coli TP, HPLC; conditions: 100 μM compound, room temperature, 0-40 min
Description: Reaction mixtures containing 100 μM test compound and recombinant TP or UP (human TP: 8.6 ng/μL; E. coli TP: 3.0 ng/μL; human UP: 4 ng/mL) in a total volume of 500 μL reaction buffer (10 mM TrisHCl; 300 μM NaCl; 1 mM EDTA; 2 mM KH2PO4/K2HPO4) were incubated at room temperature. At different time points (i.e. 0, 20, 40 min) 100 μL aliquots of the reaction mixtures were withdrawn and heated at 95° C. for 3 min to inactivate the enzyme. The resulting reaction products were separated on a reverse-phase RP-8 column (Merck, Darmstadt, Germany) and quantified by HPLC analysis (Alliance 2690, Waters, Milford, Mass.). […] UV-based detection was performed at 267 nm. The separation of Urd from uracil was performed by a linear gradient from 100% separation buffer (see above) to 60% separation buffer+40% acetonitrile (3 min 100% separation buffer; 6 min linear gradient of 100% separation buffer to 60% separation buffer+40% acetonitrile; 6 min 60% separation buffer+40% acetonitrile, followed by equilibration at 100% separation buffer). UV-based detection was performed at 258 nm.

By UniProt entry, the sequences of proteins in these tests, tags left out. Where a name states a change or a piece, a line headed by the entry shows the natural chain unless it says otherwise.
UniProt P07650: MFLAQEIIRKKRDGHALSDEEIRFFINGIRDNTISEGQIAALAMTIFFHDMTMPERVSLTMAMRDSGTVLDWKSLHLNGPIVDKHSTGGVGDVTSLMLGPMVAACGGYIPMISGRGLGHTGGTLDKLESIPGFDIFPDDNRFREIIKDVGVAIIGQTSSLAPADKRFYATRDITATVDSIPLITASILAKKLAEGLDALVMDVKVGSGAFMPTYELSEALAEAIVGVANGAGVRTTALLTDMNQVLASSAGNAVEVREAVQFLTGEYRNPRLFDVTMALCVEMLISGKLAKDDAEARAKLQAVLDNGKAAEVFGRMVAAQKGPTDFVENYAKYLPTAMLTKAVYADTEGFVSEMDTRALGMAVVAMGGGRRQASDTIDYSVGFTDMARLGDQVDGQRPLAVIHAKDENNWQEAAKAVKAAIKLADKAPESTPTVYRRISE

human TP = target: T1, human TP (Homo sapiens, UniProt P19971); assay: Phosphorolysis by human TP, HPLC; conditions: 100 μM compound, room temperature, 0-40 min
T1 sequence (P19971 11-482): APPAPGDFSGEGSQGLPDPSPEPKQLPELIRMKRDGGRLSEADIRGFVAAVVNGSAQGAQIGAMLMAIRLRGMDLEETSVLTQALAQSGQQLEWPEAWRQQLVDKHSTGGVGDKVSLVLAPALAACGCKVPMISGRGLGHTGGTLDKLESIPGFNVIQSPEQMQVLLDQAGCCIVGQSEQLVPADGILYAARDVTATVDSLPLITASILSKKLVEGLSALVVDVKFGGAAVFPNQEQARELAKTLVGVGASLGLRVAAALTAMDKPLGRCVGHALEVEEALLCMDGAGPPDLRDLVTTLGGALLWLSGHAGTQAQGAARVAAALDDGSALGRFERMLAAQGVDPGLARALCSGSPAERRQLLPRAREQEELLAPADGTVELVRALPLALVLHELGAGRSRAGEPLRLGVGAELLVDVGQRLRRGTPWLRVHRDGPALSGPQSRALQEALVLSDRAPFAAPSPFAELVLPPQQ
Description: Reaction mixtures containing 100 μM test compound and recombinant TP or UP (human TP: 8.6 ng/μL; E. coli TP: 3.0 ng/μL; human UP: 4 ng/mL) in a total volume of 500 μL reaction buffer (10 mM TrisHCl; 300 μM NaCl; 1 mM EDTA; 2 mM KH2PO4/K2HPO4) were incubated at room temperature. At different time points (i.e. 0, 20, 40 min) 100 μL aliquots of the reaction mixtures were withdrawn and heated at 95° C. for 3 min to inactivate the enzyme. […] The separation of Urd from uracil was performed by a linear gradient from 100% separation buffer (see above) to 60% separation buffer+40% acetonitrile (3 min 100% separation buffer; 6 min linear gradient of 100% separation buffer to 60% separation buffer+40% acetonitrile; 6 min 60% separation buffer+40% acetonitrile, followed by equilibration at 100% separation buffer).

For `O=c1ccn([C@@H]2O[C@H](CO)[C@@H](O)[C@H]2O)c(=O)[nH]1` [uridine, reference compound], the “Phosphorolysis by E. coli TP” value (E. coli TP) was “not by E. coli TP” and the “Phosphorolysis by human TP” value (human TP) was “not by E. coli TP, or human TP”.

— US10993957B2 (NuCana plc, priority 2011, dated 2021)
